Legend:
[1] = Solubility of compound 937 in early formulation vehicles / as in situ salt; type: physicochemical; conditions: aqueous with cosolvent or surfactant or cyclodextrin; in aqueous 50% polyethylene glycol 400 in 5% dextrose solution
[2] = Aqueous solubility of compound 937 salts and free base (excess solid stirred in water, filtered, HPLC); type: physicochemical; conditions: RT, stirred 4 hours, excess solid (target 10 mg/ml)
Text: The obtained preparations have been filtered and analyzed by means of HPLC.

Q: With `CN1CCN(c2ccc(OC(F)(F)F)c(Nc3ncc4c(n3)-c3c(c(C(N)=O)nn3CCO)CC4)c2)CC1` [compound 937, 1-(2-hydroxy-ethyl)-8-[5-(4-methyl-piperazin-1-yl)-2-trifluoromethoxy-phenylamino]-4,5-dihydro-1H-pyrazolo[4,3-h]quinazoline-3-carboxamide] as the compound, how does the solubility [1] read?
A: The solubility was roughly 7000 µg/mL.

Q: What about the aqueous solubility ([2]; listed as compound 937 free base) of the same compound?
A: The aqueous solubility was less than 100 µg/mL.

Q: Which aqueous solubility [2] does the source give for `CN1CCN(c2ccc(OC(F)(F)F)c(Nc3ncc4c(n3)-c3c(c(C(N)=O)nn3CCO)CC4)c2)CC1.O=C(O)C[C@H](O)C(=O)O` [compound 937 L-malate salt] here?
A: Its aqueous solubility is 3900 µg/mL.

Q: For `CN1CCN(c2ccc(OC(F)(F)F)c(Nc3ncc4c(n3)-c3c(c(C(N)=O)nn3CCO)CC4)c2)CC1.O=C(O)/C=C\C(=O)O` [compound 937 maleate salt], which aqueous solubility [2] is on record?
A: The aqueous solubility was 3100 µg/mL.

Q: Which aqueous solubility [2] does the source give for `CN1CCN(c2ccc(OC(F)(F)F)c(Nc3ncc4c(n3)-c3c(c(C(N)=O)nn3CCO)CC4)c2)CC1.O=C(O)/C=C/C(=O)O` [compound 937 fumarate salt] here?
A: Its aqueous solubility is 700 µg/mL.
